From PMC10630842, “Impact of dietary plant flavonoids on 7,8‐dihydroxyflavone transepithelial transport in human intestinal Caco‐2 cells” (Food Science & Nutrition, 2023)

Tested on: Caco‐2 monolayers
Assay: Bi-directional transepithelial transport of 7,8-DHF across Caco-2 monolayers with flavonoids screened as P-gp inhibitors (Papp, ER); note: key: + indicates that the inhibitor has a significant effect on 7,8‐DHF transport; − indicates that the inhibitor has no significant effect on 7,8‐DHF transport
Format: in vitro ADME, human
Details: flavonoid equimolar with 7,8‐DHF 10 μmol/L, verapamil 100 μmol/L
Method: For this experiment, the 7,8‐DHF sample was first dissolved in a small amount of dimethyl sulfoxide (DMSO) and then diluted with HBSS to a working concentration of 10 μmol/L. The final DMSO concentration in the working solution was controlled to be less than 0.5%. […] Flavonoid samples were added to the AP and BL sides at equimolar concentrations with 7,8‐DHF (the sample concentration in HBSS solution was 10 μmol/L). Prior to transport, dietary flavonoids were pretreated on the AP side for 30 min. Then, these flavonoid reagents were removed, and a 0.5 mL HBSS solution containing various dietary flavonoids with 7,8‐DHF (concentration of 10 μmol/L) was added to the AP side, while 1.5 mL of blank HBSS was added to the BL side. Conversely, 1.5 mL of HBSS solution containing various dietary flavonoids with 7,8‐DHF (10 μmol/L) was added to the BL side, and 0.5 mL of blank HBSS was added to the AP side.
The magnitude of the apparent permeability coefficients (P app, cm/s) and efflux ratio (ER) reflects the ability of the test substance to pass through the monolayer cells and the speed of absorption.
(4) ER=PappAB/PappBA where P app AB is the apparent permeability coefficient for AP → BL transport, and P app BA is the apparent permeability coefficient for BL → AP transport.
Effect of different concentrations of specific flavonoids on 7,8‐DHF transepithelial transport was investigated. […]

COc1ccc([C@@H]2CC(=O)c3c(O)cc(O)cc3O2)cc1O [Hesperetin, hesperetin]
Modulatory effect on 7,8‐DHF transport: +
